Experimental data from patent publication US11912794B2, “Modulation of structured polypeptide specificity” (BicycleRD Limited, priority 2011, dated 2024).

Columns and labels:
Assay type in all cases: biochemical
Human thrombin = Human thrombin (Homo sapiens, UniProt P00734); test: Target specificity, paralogous protease; conditions: Tables 3 and 4; unit inferred
Human factor XIIa = target: T1, Human factor XIIa (Homo sapiens, UniProt P00748); test: Target specificity, paralogous protease; conditions: Table 4; measure and unit inferred
T1 sequence (P00748 373-615 limits assumed): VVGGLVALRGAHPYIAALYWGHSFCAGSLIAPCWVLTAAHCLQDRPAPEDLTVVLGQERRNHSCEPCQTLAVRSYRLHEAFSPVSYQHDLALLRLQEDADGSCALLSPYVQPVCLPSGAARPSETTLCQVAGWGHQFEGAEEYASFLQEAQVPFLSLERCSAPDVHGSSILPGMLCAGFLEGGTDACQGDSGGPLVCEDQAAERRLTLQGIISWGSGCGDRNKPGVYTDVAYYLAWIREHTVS

human plasma Kallikrein = target: T2, human plasma Kallikrein (Homo sapiens, UniProt P03952); test: Functional enzyme inhibition assay, fluorogenic substrate Z-PheArg-AMC; conditions: Tables 3 and 4; read-out: Kallikrein Av Ki
T2 construct: purchased Stratech, UK
Procedure: Peptides were dissolved as the TFA-salts in their powder form, and stock solutions were usually prepared in water. All solutions were centrifuged and filtered ([…] syringe filters) prior absorption measurement at 280 nm. […] For peptides containing non-natural amino acids with suspected chromophoric properties (i.e. NorHar, 4PhenylPro, 3PaI, 4PaI, Tic, 4GuanPhe, 4,4-BPAI, 3,3-DPA, 1NAI, 2NAI, 4BenzylPro, Ind) concentrations were determined by weighing the powder and dissolving the peptide in a defined quantity of water.

ACAWPARCLTTSLCG [Peptide 1E6]
IC50 (Human thrombin): > 10 µM | IC50 (Human factor XIIa): > 10 µM

ACAWPARCLTVDLCA [Peptide 06-01]
IC50 (Human thrombin): > 10 µM | IC50 (Human factor XIIa): > 10 µM

ACFPSHDCDGRRMCA [Peptide 06-143]
IC50 (Human thrombin): > 10 µM | IC50 (Human factor XIIa): > 10 µM

ACGGPQNCRTWTTCA [Peptide 06-56]
IC50 (Human thrombin): > 10 µM | IC50 (Human factor XIIa): > 10 µM

ACRWPARCVHQDLCA [Peptide 06-34]
Ki (human plasma Kallikrein): < 0.0003 µM | IC50 (Human thrombin): > 10 µM | IC50 (Human factor XIIa): > 10 µM
